## Binding of CDR-mutated scFvs to a peptide of the spike HR2 region

Data: MIT Lincoln Laboratory AlphaSeq set, Engelhart et al. 2022, doi:10.1038/s41597-022-01779-4, as distributed in FLAb.

Target: peptide PDVDLGDISGINAS, taken from heptad repeat 2 (HR2) of SARS-CoV-2 spike.

Parent scFv Ab-95: VH joined to VL by the linker GGGGSGGGGSGGGGS. Changes lie in the light chain CDRs alone.
VH: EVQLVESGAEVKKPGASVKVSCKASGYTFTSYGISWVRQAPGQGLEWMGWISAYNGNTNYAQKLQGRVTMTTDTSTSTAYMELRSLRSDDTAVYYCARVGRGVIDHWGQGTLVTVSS
VL: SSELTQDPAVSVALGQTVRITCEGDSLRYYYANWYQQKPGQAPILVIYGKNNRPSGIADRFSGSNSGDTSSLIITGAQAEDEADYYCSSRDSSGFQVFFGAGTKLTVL

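Library AAYL52 holds single substitutions and randomly drawn double and triple substitutions in the CDRs. The scFvs were displayed on barcoded MATa yeast, the peptide on MATalpha yeast. Mating (16 h, 30 °C) was followed by selection of diploids and sequencing of their barcodes. Each replicate has its own calibration line, from reference interactions of the BCL2 family. Mating was done three times.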

Substitutions are numbered in sequence along the VL above, starting at 1 (not Kabat). Numbers give log10(Kd / nM), so 0 is 1 nM and 3 is 1 µM. Smaller is tighter. A mean of the replicates is given; it leaves out those without a signal. "nd" means that the variant was in the library but no mating with the target was seen in any replicate; the authors take this as a sign of poor binding, and no number exists. Nonspecific signal, from three strains lacking the peptide, appeared in 28% of pairings of library AAYL52, centred on 3.91 (5% of these signals below 2.90); values are not corrected for it. Parent in this assay: reference entry 2.31, copy in this library 2.25.

changes	log10 Kd (nM), mean	detected
K50A S88M Q96E	2.71	3 of 3
D25Q N33Y R90K	5.44	1 of 3
Y29R P54N D91M	nd	0 of 3
D25R N33H F95P	4.24	2 of 3
S26W S89C F95W	3.88	1 of 3
N52V S88E S89K	2.39	3 of 3
E23F G94L V97M	2.51	3 of 3
Y29S N52L S89M	2.08	3 of 3
N51I R90H F98T	nd	0 of 3
D25R Y29I D91E	4.13	3 of 3
S55Y S92E S93E	3.07	3 of 3
K50W S92G V97N	4.70	2 of 3
R53W S92N S93I	3.71	2 of 3
S26K Y30E	2.80	3 of 3
R90E S92H F95D	3.92	3 of 3
G24I N52I	4.09	3 of 3
G49E S89T F98G	5.29	1 of 3
N52Y S55A D91N	3.52	1 of 3
N51R S92W G94V	4.10	2 of 3
E23Y R53W G94S	4.61	2 of 3
G24N L27W P54H	4.67	2 of 3
E23V S92V V97T	2.68	3 of 3
Y31A G49W	2.71	2 of 3
R28F P54M G94V	3.32	3 of 3
E23A Y30I S55E	1.84	3 of 3
L27T R90H Q96V	3.60	1 of 3
E23W G24K F95T	4.14	2 of 3
N33L N52L	2.73	3 of 3
E23G K50N	2.11	3 of 3
G24L Y31A S55A	2.60	3 of 3
G24E K50Y R53I	4.27	2 of 3
R28S G94S F98E	3.04	3 of 3
G24A Y30F	3.44	1 of 3
P54D S92K F98T	3.76	3 of 3
A32C N52S S93P	2.55	3 of 3
N33F N51M R53V	4.03	1 of 3
N51Q P54Q S92I	3.17	3 of 3
A32R R53E	5.20	1 of 3
N52K D91I F98W	2.83	1 of 3
G24Q N52D S92D	2.12	3 of 3
Y31C R90L F98M	2.64	3 of 3
S26A R28S D91L	3.98	3 of 3
Y29K R90P D91M	3.59	3 of 3
E23Q N51C G94M	nd	0 of 3
D25L S92L	2.91	3 of 3
S26V G49C S89Y	3.55	1 of 3
E23A R28W K50C	4.10	2 of 3
R28F Y31K N52S	3.22	3 of 3
Y29C S93L G94E	3.90	2 of 3
K50M F95V	2.68	3 of 3
G49N S89M G94Q	4.04	1 of 3

8 of these entries, quoted again:

changes	log10 Kd (nM), mean	detected
S55Y S92E S93E	3.07	3 of 3
R53W S92N S93I	3.71	2 of 3
E23W G24K F95T	4.14	2 of 3
K50A S88M Q96E	2.71	3 of 3
G24Q N52D S92D	2.12	3 of 3
D25R N33H F95P	4.24	2 of 3
D25R Y29I D91E	4.13	3 of 3
Y29C S93L G94E	3.90	2 of 3